Tests used:
[1] = tested on: SK-BR-3, HCC-1954, MDA-MB-231 and MCF-7 cells; assay type: cell-based; conditions: 50 to 0.01 g/mL as printed; any cell line, independently of HER2 status
Description: (§1) Sulforhodamine B colorimetric assay for cytotoxicity screening. Nature Protocols, 2006, 1, 1112-1116.
(§2) Cell survival was expressed as percentage of control, untreated cell survival.

HCC-1954 = assay: SRB cytotoxicity assay, HCC-1954 (HER2+); assay type: cell-based, human; conditions: HER2 positive; 72 hours; geometric mean of three independent experiments
SK-BR-3 = assay: SRB cytotoxicity assay, SK-BR-3 (HER2+); assay type: cell-based, human; conditions: HER2 positive; 72 hours; geometric mean of three independent experiments
Description: as §1, §2

MDA-MB-231 = assay: SRB cytotoxicity assay, MDA-MB-231 (HER2-); assay type: cell-based, human; conditions: HER2 negative; 72 hours; geometric mean of three independent experiments
Description: as §1, §2

MCF-7 = assay: SRB cytotoxicity assay, MCF-7 (HER2-); assay type: cell-based, human; conditions: HER2 negative; 72 hours; geometric mean of three independent experiments
Description: as §1, §2

Substance: Trastuzumab: monoclonal antibody that interferes with the HER2/neu receptor; purchased from Roche
- in vitro cytotoxicity [1]: completely inactive
- IC50 (HCC-1954): > 340 nM
- IC50 HCC-1954 (HCC-1954): >50 µg/mL
- IC50 (SK-BR-3): > 340 nM
- IC50 SK-BR-3 (SK-BR-3): >50 µg/mL
- IC50 (MDA-MB-231): > 340 nM
- IC50 MDA-MB-231 (MDA-MB-231): >50 µg/mL
- IC50 (MCF-7): > 340 nM
- IC50 MCF-7 (MCF-7): >50 µg/mL

Reference: patent US20240131180A1, “DRUG ANTIBODY CONJUGATES” (PHARMA MAR, S.A., priority 2020, published 2024)
